# Test system: SK_Ov3 xenograft
# Test: In vivo efficacy in SK_Ov3 xenograft mice
# Conditions: SK_Ov3 xenografts, 3 weekly doses of 15 mg/kg
substance,measurement,value
TDM-1,tumor response,showed efficacy

# From patent US11285128B2, “Homogenous antibody drug conjugates via enzymatic methods” (CSPC Megalith Biopharmaceutical Co., Ltd., priority 2014, dated 2022)
